Test results taken from patent US20120015414A1, “Production of organic compounds” (priority 2010, published 2012).

Test: Solubility of purified OleA on concentration
Format: physicochemical
Details: purified His-tagged OleA after concentration
Experimental: Purification of OleA. Cells were resuspended in 20 mM sodium phosphate buffer, 500 mM NaCl pH 7.4 with EDTA-free protease inhibitor tablets (Roche). Cells were disrupted by 3 passes through a chilled French pressure cell at 1200 psi and centrifuged at 27,000 g for 90 min to obtain the soluble protein fraction. The soluble fraction was centrifuged at 27,000 g for 30 min to clear prior to loading onto a Pharmacia Biotech LCC 501 FPLC equipped with a 5 ml Ni(II)-loaded HisTrap HP column (Amersham Biosciences) equilibrated with 20 mM sodium phosphate, 500 mM NaCl pH 7.4 buffer. The OleA protein was eluted at 135 mM imidazole. Ten g wet weight of cell paste yielded 60 mg purified OleA. Fractions were analyzed by SDS-PAGE and Simply Blue Safestain (Invitrogen). Pooled fractions were concentrated, and imidazole removed, with 3 passes through a 50 ml pressure concentrator (Amicon) using a 10,000 MWCO membrane (Millipore). Alternatively, after concentration of fractions, the OleA protein was dialyzed 3 times at 4° C. to remove the imidazole. Protein concentrated up to 30 mg/ml remained soluble and active.

B1: OleA: His-tagged OleA protein from Xanthomonas campestris produced in E. coli and purified (protein, UniProt Q8PDX2 1-338, looked up)
Acyl-CoA:acyl-CoA …: MLFQNVSIAGLAHIDAPHTLTSKEINERLQPTYDRLGIKTDVLGDVAGIHARRLWDQDVQASDAATQAARKALIDANIGIEKIGLLINTSVSRDYLEPSTASIVSGNLGVSDHCMTFDVANACLAFINGMDIAARMLERGEIDYALVVDGETANLVYEKTLERMTSPDVTEEEFRNELAALTLGCGAAAMVMARSELVPDAPRYKGGVTRSATEWNKLCRGNLDRMVTDTRLLLIEGIKLAQKTFVAAKQVLGWAVEELDQFVIHQVSRPHTAAFVKSFGIDPAKVMTIFGEHGNIGPASVPIVLSKLKELGRLKKGDRIALLGIGSGLNCSMAEVVW
modifications: His tag
notes: His-tagged OleA protein from Xanthomonas campestris produced in E. coli and purified
concentration at which protein remained soluble and active: up to 30 mg/ml
